Chains of the proteins cited; added tags and fusions are not shown. Residues count along the entry.
UniProt O09039, 324-446: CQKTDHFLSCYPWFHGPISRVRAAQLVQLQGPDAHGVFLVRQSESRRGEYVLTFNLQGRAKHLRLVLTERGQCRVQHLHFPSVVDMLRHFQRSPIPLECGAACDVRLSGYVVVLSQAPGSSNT

In PMC8528861, “Structural and functional analysis of target recognition by the lymphocyte adaptor protein LNK” (Nature Communications, 2021):

Target: T1, LNK SH2 domain (Mus musculus, UniProt O09039)
T1 construct: DNA encoding the mouse LNK SH2 domain (residues 324–446) and an N-terminal NusA; NusA (N, cleaved yes); made in house; host or cells: E. coli (tuner (DE3), BL21(DE3) or C43)
Assay: SPR competition assay (immobilised IL6ST pY757 peptide)
Format: binding
Protocol: SH2 domains typically bind ligands with a specific preference for amino acids at the −2 to +5 positions, relative to phosphotyrosine. […] To determine the contribution of individual residues, we made a series of mutations within the JAK2 phosphopeptide, and measured their affinity for the LNK SH2 domain via a surface plasmon resonance (SPR) competition assay (Fig. 3). The LNK SH2 domain was incubated with increasing concentrations of mutant JAK2 pY813 peptides before being passed over a chip coated with an immobilised low affinity phosphopeptide derived from a site on the intracellular domain of the IL-6 receptor, IL6ST. […] The +2 residue was not mutated as the structure indicates its sidechain points towards solvent.
The LNK SH2 domain has been proposed to interact with a suite of phosphorylated sites on various signalling proteins[16]–[19],[32]. […] In addition, binding to the activation loops of JAK2 and IRK, and pY785 of JAK3 were also examined. […]
SPR competition assays were performed on either a Biacore 4000 or 200 (GE Healthcare) in 10 mM HEPES (pH 7.4), 150 mM NaCl, 3.4 mM EDTA, 0.005% Tween 20 using a streptavidin coated chip and were regenerated in 50 mM NaOH, 1 M NaCl. […] Data was analysed using Prism, the response of LNK in the presence of the peptide was normalised to an LNK only control and then fitted as an IC50 curve via non-linear regression.

SMILES: CC(C)C[C@H](NC(=O)[C@H](CCCNC(=N)N)NC(=O)[C@H](CCCNC(=N)N)NC(=O)[C@H](Cc1ccc(OP(=O)(O)O)cc1)NC(=O)[C@H](Cc1c[nH]cn1)NC(=O)[C@H](C)NC(=O)[C@@H]1CCCN1C(=O)[C@@H](N)Cc1ccccc1)C(=O)N[C@@H](CCCNC(=N)N)C(=O)N[C@@H](Cc1c[nH]cn1)C(=O)N[C@@H](C)C(=O)N[C@@H](Cc1c[nH]c2ccccc12)C(=O)O [MPL pY521]
- IC50: > 10 µM
